Structures are written as SMILES.

The text below walks through data of ChEMBL document CHEMBL1123706, “Design of alternate substrate inhibitors of serine proteases. Synergistic use of alkyl substitution to impede enzyme-catalyzed deacylation” (J Med Chem, 1987).

Assay [1] deals with T1, Neutrophil elastase (Homo sapiens) (UniProt P08246).
T1 sequence (whole entry): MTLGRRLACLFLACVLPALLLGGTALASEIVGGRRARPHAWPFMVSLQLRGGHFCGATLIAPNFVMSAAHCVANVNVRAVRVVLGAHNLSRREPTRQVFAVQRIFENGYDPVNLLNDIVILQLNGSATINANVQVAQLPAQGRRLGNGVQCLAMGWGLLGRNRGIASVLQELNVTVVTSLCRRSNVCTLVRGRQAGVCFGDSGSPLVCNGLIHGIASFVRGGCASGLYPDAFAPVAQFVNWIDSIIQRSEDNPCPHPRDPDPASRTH

The target of assay [2] is T1, Neutrophil elastase (Homo sapiens). In words: Rate of deacylation by human leukocyte elastase. The procedure, abridged:
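Human leukocyte elastase. koff was mostly calculated as k1·Ki from progress curves, with coumarin substrate at about 0.04 Km in HEPES/1 M NaCl/Brij 35 buffer, pH 7.8, 25 °C. Otherwise, acyl enzyme was prepared and isolated on Sephadex G-25 at low pH. Deacylation was followed as the return of activity after dilution into assay buffer containing fluorogenic substrate.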

For `Nc1nc2ccccc2c(=O)o1`, the k1 in assay [1] came to 810 M⁻¹ s⁻¹. The same compound came in with a k off in assay [2] of 0.051 s⁻¹. For `CCCCNc1nc2ccccc2c(=O)o1`, in that order: 66000 M⁻¹ s⁻¹ and 0.0055 s⁻¹. As to `CCc1cccc2nc(N)oc(=O)c12`, in assay [1], the k1 is less than 15 M⁻¹ s⁻¹. `CCc1cccc2nc(NC(C)C)oc(=O)c12`: the k1 in assay [1] was 70000 M⁻¹ s⁻¹. Besides, the k off in assay [2] was 6.6e-05 s⁻¹. For `Cc1cccc2nc(NC(C)C)oc(=O)c12`, in that order: 11800 M⁻¹ s⁻¹ and 1.8e-05 s⁻¹. For `CCCNc1nc2ccccc2c(=O)o1` the same measures were 450000 M⁻¹ s⁻¹ and 0.041 s⁻¹.
